Assay results reported in PMC10871247 (bioRxiv, 2024).

Molecular target: the molecule itself
Experiment: SEC

B1: 3×Lys-MxEnc (natural protein, Myxococcus xanthus)
chain: MPDFLGHAENPLREEEWARLNETVIQVARRSLVGRRILDIYGPLGAGVQTVPYDEFQGVSPGAVDIVGEQETAMVFTDARKFKTIPIIYKDFLLHWRDIEAARTHNMPLDVSAAAGAAALCAQQEDELIFYGDARLGYEGLMTANGRLTVPLGDWTSPGGGFQAIVEATRKLNEQGHFGPYAVVLSPRLYSQLHRIYEKKKVLEIETIRQLASDGVYQSNRLRGESGVVVSTGRENMDLAVSMDMVAAYLGASRMNHPFRVLEALLLRIKHPDAICTLEGAGATERR
binding result: binds
